Reference: PMC4078735 (2013)

Assays:
[1] = pig, PAMPA, pH 7.4
[2] = PAMPA, pH 7.4
[3] = PAMPA, pH 7.4; remark: listed apart in the source
[4] = PAMPA

Substance: buprenorphine
- Permeability (Log Pe, cm/sec) Porcine polar brain lipid (PBL) [1]: −3.92 ± 0.43 cm/sec
- Permeability (Log Pe, cm/sec) Microvessel lipid (MVL) [2]: −1.59 ± 0.13 cm/sec
- Permeability (Log Pe, cm/sec) Microvessel lipid + cholesterol (MVLC) [3]: −3.03 ± 0.28 cm/sec
- Ability to cross the dodecane barrier [4]: unable to cross the barrier
